# Read-outs that look alike come from different tables or passages of the source.
# Experiments:
# [1] = PK and biodistribution of PEI-modified HSA carriers in mice with B-16 melanoma tumors (anti-HSA ELISA); format: in vivo; settings: IV 250 nmol/Kg
# Protocol: The carriers were IV injected at a dose of 250 nmol/Kg. PK and biodistribution of the tested carriers were evaluated using anti-HSA ELISA.
# In contrast, when the VHH was directly conjugated with PEI1800 at its C-terminus the clearance from blood was very rapid (FIG. 25B, Table 2). The plasma exposure levels of both carriers can be seen in FIG. 25C.
# [2] = PK and biodistribution of anti-Vimentin VHH conjugates in mice (ELISA, immunofluorescence); format: in vivo; settings: 24 hours post injection; for HSA levels in organs (brain, heart, spleen, lung, tail, liver): mice injected with VHH-carrier conjugate, HSA ELISA
# Protocol: Additionally, various tissues were harvested from the mice at 24 hours post injection to evaluate biodistribution. Tissues included liver, spleen, kidneys, lungs, heart and brain.
# Initial analysis focused on the detection and measurement of the payload, i.e., the VHH. Samples were analyzed by an ELISA used for detection of VHH as well as by an ELISA designed to measure the intact carrier-VHH conjugate. […] Analysis of VHH levels in plasma samples taken at 24 hours post injection could not detect any VHH regardless of whether it was unmodified or part of the conjugate. […] This hypothesis was further supported by results of ELISA (FIG. 28) and immunofluorescence analysis (FIG. 29) of VHH in the various tissues.
# Understanding that the payload VHH was prematurely cleaved in the plasma, the levels of the carrier itself were analyzed in the various collected organs. An ELISA directed only at the HSA protein was used to analyze extracts of brain, heart, spleen, lung, tail and liver from the injected animals. […] These ELISA results were corroborated by immunofluorescence results showing high levels of the HSA-PEI×8 protein in spleen cryosections stained with an anti-HSA-FITC antibody (FIG. 32C).
# SU8686 cells = experiment: Annexin V apoptosis of SU8686 pancreatic ductal carcinoma cells (Incucyte); format: cell-based
# Excerpt: The carrier was modified with either 8 or 3.5 PEI molecules. The apoptotic state of the cells was monitored using the classical Annexin V assay and was visualized using the Incucyte® continuous cell monitoring system. […] This is likely due to enhanced internalization and quicker kinetics, especially of the endosomal escape process.
# [3] = In vivo PK study of 3rd generation linkers (hindered PEGs and peptide linkers), two side ELISA; settings: Balb-c mice, 60 nmol/Kg, plasma
# [4] = mouse, in vivo, 60 nmol/kg
Substance,AUC-0-t [1] [µg·h/mL],Clearance [1] [mL/min/kg],"HSA levels in organs (brain, heart, spleen, lung, tail, liver) [2]",apoptosis (Annexin V) (SU8686 cells),AUC0-t [3] [µg·h/mL],C0 [3] [µg/mL],CL [3] [mL/min/kg],Cmax [3] [µg/mL],"carrier (HSA) levels in plasma ([2]; mice, HSA-specific ELISA)",AUC0-inf [4] [µg·h/mL],AUC0-t [4] [µg·h/mL],C0 [4] [µg/mL],Cmax [4] [µg/mL]
HSA-PEI × 3.5: HSA carrier modified with an average of 3.5 PEI units,578,0.432,detected at very low levels in all organs,–,–,–,–,–,–,–,–,–,–
HSA-PEI × 8: HSA carrier modified with an average of 8 PEI units,22,12.2,"detected at very high levels in all organs, except lungs and tail",baseline levels of apoptosis,–,–,–,–,–,–,–,–,–
Human Serum Albumin [HSA],–,–,detected at very low levels in all organs,–,1226.9,75.6,0.064,74.1,significant levels,2300.5,2084.3,118.7,113.0

# Source: US12544451B2, “Intracellular delivery compositions” (BIOND BIOLOGICS LTD., priority 2021, dated 2026)
